Reference: US4812442A, “Tripeptide renin inhibitors” (priority 1987, dated 1989)

Chains of the proteins cited; added tags and fusions are not shown. Residues count along the entry.
UniProt P00797, 67-406 limits assumed: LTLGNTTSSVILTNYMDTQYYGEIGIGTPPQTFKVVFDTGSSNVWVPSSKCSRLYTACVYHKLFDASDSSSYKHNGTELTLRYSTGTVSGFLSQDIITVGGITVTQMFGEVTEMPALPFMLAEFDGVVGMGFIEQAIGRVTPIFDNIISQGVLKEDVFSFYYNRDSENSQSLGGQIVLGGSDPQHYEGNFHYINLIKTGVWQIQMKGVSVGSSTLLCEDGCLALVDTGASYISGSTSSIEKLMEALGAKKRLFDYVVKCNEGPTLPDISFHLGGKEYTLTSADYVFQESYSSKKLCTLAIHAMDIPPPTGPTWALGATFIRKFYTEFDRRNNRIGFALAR

Target: renin (Homo sapiens, UniProt P00797)
Assay: Renin inhibition IC50 (methods of J. Med. Chem., 1985, 28, 1789-1790)
Format: biochemical
Description: The following examples are intended to be representative and not limiting. IC50 results were obtained according to the methods described in J. Med. Chem., 1985, 28, 1789-1790.

IC50: 2000 nM
Compound: CC(C)C[C@@H](CNCc1ccccc1)NC(=O)C[C@H](O)[C@H](CC(C)C)NC(=O)[C@H](Cc1ccccc1)NC(=O)[C@H](Cc1ccccc1)NC(=O)OC(C)(C)C
